Earlier results in publication PMC9053952 (RSC Advances, 2020).

By UniProt entry, the sequences of proteins in these tests, tags left out. Where a name states a change or a piece, a line headed by the entry shows the natural chain unless it says otherwise.
UniProt P30550: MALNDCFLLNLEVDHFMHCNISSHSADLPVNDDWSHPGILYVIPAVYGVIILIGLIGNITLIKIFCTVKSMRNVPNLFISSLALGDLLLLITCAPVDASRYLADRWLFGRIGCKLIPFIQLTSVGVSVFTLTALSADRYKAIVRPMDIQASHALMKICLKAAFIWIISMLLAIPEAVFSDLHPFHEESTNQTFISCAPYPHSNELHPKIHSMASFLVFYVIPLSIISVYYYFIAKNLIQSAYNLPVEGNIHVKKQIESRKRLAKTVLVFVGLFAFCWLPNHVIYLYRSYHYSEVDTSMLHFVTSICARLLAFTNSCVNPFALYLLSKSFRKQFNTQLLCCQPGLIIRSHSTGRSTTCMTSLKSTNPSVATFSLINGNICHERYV
UniProt Q92847, whole entry: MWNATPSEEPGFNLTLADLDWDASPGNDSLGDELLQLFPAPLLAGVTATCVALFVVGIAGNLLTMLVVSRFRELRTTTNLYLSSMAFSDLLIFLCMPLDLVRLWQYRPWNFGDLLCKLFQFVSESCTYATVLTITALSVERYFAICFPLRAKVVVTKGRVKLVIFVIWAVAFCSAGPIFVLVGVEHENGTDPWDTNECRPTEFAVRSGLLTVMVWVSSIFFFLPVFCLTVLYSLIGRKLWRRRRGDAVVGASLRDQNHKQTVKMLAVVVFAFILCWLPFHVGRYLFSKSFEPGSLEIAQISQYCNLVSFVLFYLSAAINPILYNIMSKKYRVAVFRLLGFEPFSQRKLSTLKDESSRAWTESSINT

Experiments:
[1] = molecular target: GRPR (Homo sapiens, UniProt P30550); settings: parent peptide, cited from earlier work
[2] = molecular target: GHSR-1a (Homo sapiens, UniProt Q92847); settings: cited from earlier work

Substance	affinity for GRPR (in words) [1]	IC50 ([1]; parental PC-3 cells)	IC50 ([2]; HEK293 cells transfected with GHSR-1a, parent peptide)	affinity for GHSR-1a (in words) [2]
[DTyr^6,βAla^11,Phe^13,Nle^14]bombesin(6–14) amide [Compound 3]	very high affinity for GRPR	0.7 nM		
[Dpr(octanoyl)^3,Thr^8]ghrelin(1–8) amide [Compound 2]			3.3 nM	excellent affinity for GHSR-1a
